Reference: patent US20160031996A1 (CSL, published 2016)

Molecular target: T1, full length human IL-3Rα, wild type (human, UniProt P26951 19-378)
T1 construct: expressed in 293F cells; also called WT
T1 sequence: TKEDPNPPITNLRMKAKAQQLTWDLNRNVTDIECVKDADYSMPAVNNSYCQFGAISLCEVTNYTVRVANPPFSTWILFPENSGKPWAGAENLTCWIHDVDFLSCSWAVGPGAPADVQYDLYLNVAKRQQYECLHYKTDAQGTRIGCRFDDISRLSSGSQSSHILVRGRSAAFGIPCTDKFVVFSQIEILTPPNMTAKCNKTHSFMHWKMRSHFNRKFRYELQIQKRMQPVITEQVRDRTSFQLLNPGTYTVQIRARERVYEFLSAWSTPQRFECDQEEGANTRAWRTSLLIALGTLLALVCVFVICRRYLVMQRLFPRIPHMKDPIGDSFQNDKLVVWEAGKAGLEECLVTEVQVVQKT
Assay: flow cytometry, MFI normalised to WT (reference, set as 100%)

B1: antibody CSL362 (antibody, V domains shown)
VH: EVQLVQSGAEVKKPGESLKISCKGSGYSFTDYYMKWARQMPGKGLEWMGDIIPSNGATFYNQKFKGQVTISADKSISTTYLQWSSLKASDTAMYYCARSHLLRASWFAYWGQGTMVTVSS
VL: DIVMTQSPDSLAVSLGERATINCESSQSLLNSGNQKNYLTWYQQKPGQPPKPLIYWASTRESGVPDRFSGSGSGTDFTLTISSLQAEDVAVYYCQNDYSYPYTFGQGTKLEIKR
  MFI as percent of WT staining: 100 % of WT MFI
